Data published in PMC11236204 (PLOS Pathogens, 2024).

What was measured:
[1] = test system: Ifit2, Cxcl10, Tnfa, Cxcl1 RNA; experiment: ISG and inflammatory gene expression by qPCR, rat cortical neurons; type: cell-based; conditions: vehicle = 1; for Rel. Fold change Cxcl1 RNA: Fig 4D; for Rel. Fold change Cxcl10 RNA: Fig 4E
[2] = test system: Cxcl1, Ccl2 RNA; experiment: Inflammatory gene expression by qPCR, wild type or TLR2 KO mouse neurons; conditions: Wt vehicle = 1; for Rel. Fold change Cxcl1 RNA: Fig 4K; for Rel. Fold change Ccl2 RNA: Fig 4L

## CCCCCCCCCCCCCCCC(=O)N[C@@H](CSCC(COC(=O)CCCCCCCCCCCCCCC)OC(=O)CCCCCCCCCCCCCCC)C(=O)N[C@@H](CO)C(=O)N[C@@H](CCCCN)C(=O)N[C@@H](CCCCN)C(=O)N[C@@H](CCCCN)C(=O)N[C@@H](CCCCN)C(=O)O (stereo partly drawn) [Pam3CSK4]
[1]; replicate 1
  Rel. Fold change Cxcl1 RNA: 896.541
  Rel. Fold change Cxcl10 RNA: 607.751
[1]; replicate 2
  Rel. Fold change Cxcl1 RNA: 1514.5
  Rel. Fold change Cxcl10 RNA: 2363.87
[1]; replicate 3
  Rel. Fold change Cxcl1 RNA: 660.399
  Rel. Fold change Cxcl10 RNA: 680.019
[2]; TLR2 KO, replicate 1
  Rel. Fold change Cxcl1 RNA: 1.167
  Rel. Fold change Ccl2 RNA: 1.274
[2]; TLR2 KO, replicate 2
  Rel. Fold change Cxcl1 RNA: 1.559
  Rel. Fold change Ccl2 RNA: 1.988
[2]; TLR2 KO, replicate 3
  Rel. Fold change Cxcl1 RNA: 5.824
  Rel. Fold change Ccl2 RNA: 93.9616
[2]; Wt, replicate 1
  Rel. Fold change Cxcl1 RNA: 719.015
  Rel. Fold change Ccl2 RNA: 293.382
[2]; Wt, replicate 2
  Rel. Fold change Cxcl1 RNA: 355.675
  Rel. Fold change Ccl2 RNA: 459.401
[2]; Wt, replicate 3
  Rel. Fold change Cxcl1 RNA: 745.984
  Rel. Fold change Ccl2 RNA: 5408.45
